Data as given in paper PMC10092094 (Chemmedchem, 2022).

Sequences of proteins named here, by UniProt entry; tags and fusion partners are left off.
UniProt O15527, whole entry: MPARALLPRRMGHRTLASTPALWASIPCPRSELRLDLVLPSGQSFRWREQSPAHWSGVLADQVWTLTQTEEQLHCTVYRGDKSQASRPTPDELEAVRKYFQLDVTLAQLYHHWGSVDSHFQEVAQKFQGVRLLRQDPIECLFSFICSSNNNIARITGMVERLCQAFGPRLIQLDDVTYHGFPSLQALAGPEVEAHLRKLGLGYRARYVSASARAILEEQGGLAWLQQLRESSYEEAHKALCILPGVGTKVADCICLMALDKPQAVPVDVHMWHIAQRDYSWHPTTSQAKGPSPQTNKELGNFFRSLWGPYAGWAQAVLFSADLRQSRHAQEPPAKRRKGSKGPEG

Legend:
[1] = biological target: T1, OGG1 (Homo sapiens, UniProt O15527); test: Differential scanning fluorimetry; format: binding
[2] = biological target: T1, OGG1; test: biochemical; details: IC50 (CI95), biochemical inhibition, confidence interval 95 in parentheses

DSF stabilization (ΔT) [1] [K] | IC50 [2] [µM] | Structure (SMILES)
1.6 | > 100 | O=C(Nc1cccc(F)c1)N1CCC(n2c(=O)[nH]c3ccccc32)CC1 [Compound 2, N‐(3‐fluorophenyl)‐4‐(2‐oxo‐2,3‐dihydro‐1H‐1,3‐benzodiazol‐1‐yl)piperidine‐1‐carboxamide]
1.2 | > 100 | O=C(Nc1cccc(Cl)c1)N1CCC(n2c(=O)[nH]c3ccccc32)CC1 [Compound 3, N‐(3‐chlorophenyl)‐4‐(2‐oxo‐2,3‐dihydro‐1H‐1,3‐benzodiazol‐1‐yl)piperidine‐1‐carboxamide]
1.3 | > 100 | O=C(Nc1ccc(F)cc1)N1CCC(n2c(=O)[nH]c3ccccc32)CC1 [Compound 5, N‐(4‐fluorophenyl)‐4‐(2‐oxo‐2,3‐dihydro‐1H‐1,3‐benzodiazol‐1‐yl)piperidine‐1‐carboxamide]
– | > 100 | O=C(Nc1ccc([N+](=O)[O-])cc1)N1CCC(n2c(=O)[nH]c3ccccc32)CC1 [Compound 10, N‐(4‐nitrophenyl)‐4‐(2‐oxo‐2,3‐dihydro‐1H‐1,3‐benzodiazol‐1‐yl)piperidine‐1‐carboxamide]
1.3 | > 100 | O=C(Nc1cccc(Cl)c1)N1CCC(n2c(=O)[nH]c3cc(Cl)ccc32)CC1 [Compound 13, 4‐(5‐chloro‐2‐oxo‐2,3‐dihydro‐1H‐1,3‐benzodiazol‐1‐yl)‐N‐(3‐chlorophenyl)piperidine‐1‐carboxamide]
1.5 | > 100 | Cc1ccc(NC(=O)N2CCC(n3c(=O)[nH]c4cc(Cl)ccc43)CC2)cc1 [Compound 14, 4‐(5‐chloro‐2‐oxo‐2,3‐dihydro‐1H‐1,3‐benzodiazol‐1‐yl)‐N‐(4‐methylphenyl)piperidine‐1‐carboxamide]
1.7 | – | O=C(Nc1ccc(F)cc1)N1CCC(n2c(=O)[nH]c3cc(Cl)ccc32)CC1 [Compound 15, 4‐(5‐chloro‐2‐oxo‐2,3‐dihydro‐1H‐1,3‐benzodiazol‐1‐yl)‐N‐(4‐fluorophenyl)piperidine‐1‐carboxamide]
– | 1.4 | O=C(Nc1ccc(I)cc1)N1CCC(n2c(=O)[nH]c3cc(Cl)ccc32)CC1 [Compound 18, 4‐(5‐chloro‐2‐oxo‐2,3‐dihydro‐1H‐1,3‐benzodiazol‐1‐yl)‐N‐(4‐iodophenyl)piperidine‐1‐carboxamide]
3.4 | – | Cc1ccc2[nH]c(=O)n(C3CCN(C(=O)Nc4ccc(I)cc4)CC3)c2c1 [Compound 22, 4‐(6‐methyl‐2‐oxo‐2,3‐dihydro‐1H‐1,3‐benzodiazol‐1‐yl)‐N‐(4‐iodophenyl)piperidine‐1‐carboxamide]
-0.17 | – | O=C(Nc1ccc([N+](=O)[O-])cc1)N1CCC(n2c(=O)[nH]c3c(Br)cccc32)CC1 [Compound 48, 4‐(4‐bromo‐2‐oxo‐2,3‐dihydro‐1H‐1,3‐benzodiazol‐1‐yl)‐N‐(4‐nitrophenyl)piperidine‐1‐carboxamide]
-0.11 | – | CCOC(=O)c1ccc(NC(=O)N2CCC(n3c(=O)[nH]c4c(Br)cccc43)CC2)cc1 [Compound 50, Ethyl‐4‐{[4‐(4‐bromo‐2‐oxo‐2,3‐dihydro‐1H‐1,3‐benzodiazol‐1‐yl)‐piperidine‐1‐carbonyl]‐amino}‐benzoate]
-0.37 | – | CC(=O)Nc1ccc(NC(=O)N2CCC(n3c(=O)[nH]c4c(Br)cccc43)CC2)cc1 [Compound 51, 4‐(4‐bromo‐2‐oxo‐2,3‐dihydro‐1H‐1,3‐benzodiazol‐1‐yl)‐N‐(4‐acetamidophenyl)piperidine‐1‐carboxamide]
